Patent US8377967B2, “Piperidine derivative” (Nippon Zoki Pharmaceutical Co., Ltd., priority 2008, dated 2013)

Sequences of proteins named here, by UniProt entry; tags and fusion partners are left off.
UniProt P70174, whole entry: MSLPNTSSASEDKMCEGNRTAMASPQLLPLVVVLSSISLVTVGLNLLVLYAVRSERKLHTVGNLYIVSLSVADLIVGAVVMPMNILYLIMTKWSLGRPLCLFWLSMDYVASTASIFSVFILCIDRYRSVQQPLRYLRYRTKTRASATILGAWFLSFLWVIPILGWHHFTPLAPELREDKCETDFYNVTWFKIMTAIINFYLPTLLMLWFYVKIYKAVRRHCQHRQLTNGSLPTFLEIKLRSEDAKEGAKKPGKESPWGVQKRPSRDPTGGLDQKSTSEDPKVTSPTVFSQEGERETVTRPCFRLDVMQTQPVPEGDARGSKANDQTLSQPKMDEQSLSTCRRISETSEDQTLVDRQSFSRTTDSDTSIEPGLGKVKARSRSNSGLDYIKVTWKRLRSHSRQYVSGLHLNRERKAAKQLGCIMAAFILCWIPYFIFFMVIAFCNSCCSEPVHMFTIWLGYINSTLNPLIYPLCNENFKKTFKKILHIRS

Target: T1, cerebral H1 receptor (Mus musculus, UniProt P70174)
T1 construct: the entire brain, except for cerebellum and medulla oblongatae, was rapidly excised; from tissue; host or cells: brain homogenate (without cerebellum and medulla oblongata) of orally dosed ICR male mice
Assay: Murine cerebral H1 receptor occupying content (ex vivo)
Assay type: in vivo
Conditions: ID50 of cerebral receptor binding test (Table 20) divided by ED50 of vascular hyperpermeability test (Table 19)
Procedure: A 6-week-old ICR male mouse was previously fed for one week or more by allowing the mouse to take a solid feed and tap water ad libitum, under the environment setting of a temperature of 22° C., humidity of 55% and an artificial illumination of 12 hours a day, and the mouse was fasted overnight to be used for the experiment. A substance to be tested was dissolved with water for injection or suspended in 0.5% carboxymethyl cellulose solution, and the solution or suspension was orally administered to the mouse (dose volume: 0.1 mL/10 g body weight). […]
To a test tube for reaction (TPX-Tube) were added 180 μL of the brain homogenate, and 10 μL of ^3H-pyrilamine solution (final concentration: 2 nmol/L) and 10 μL of a non-labeled pyrilamine solution (final concentration: 200 μmol/L) or a 50 mmol/L phosphate buffered saline, and the mixture was incubated at room temperature for 45 minutes, and 2.0 mL of an ice-cooled, 50 mmol/L phosphate buffered saline was then added thereto to stop the reaction. […] After drying, 10 mL of a scintillator (AL-1, toluene-based, manufactured by DOJINDO LABORATORIES) was added to the product, and the disintegration per minute (dpm) was measured with a liquid scintillation counter (manufactured by Packard, U.S.A., TRI-CARB 2700TR) (5 minutes/vial).

CN1CCC(=C2c3ccccc3CC(=O)c3sccc32)CC1 [Ketotifen, reference compound]
ID50 (mg/kg)/ ED50 (mg/kg): 0.9
